PubChem BioAssay AID624351 (Southern Research Specialized Biocontainment Screening …, 2012)
This is a selection; strong and weak results do not stand in their true shares. Active and inactive are the calls of the source.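 The calls were made as follows: active = inhibition of 30% or more at any tested dose; inconclusive = primary hits over the limit that were never retested; inactive = the rest.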

Assay: coupled detection enzyme interference, dose response, artefact control for MgcRacGAP inhibitor project, biochemical, coupled enzyme counter-screen (AID 624351);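 also: signal is the ADP detection kit reading of free GDP without any GAP enzyme; 0% = median positive control wells and 100% = median negative control wells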
Conditions: ADP Hunter coupled enzyme counter-screen, fluorescence, no MgcRacGAP; at 80 µM (top of the series)

Q: With `CCCCCCCCCCCCCCCC1C[N+](C)(C)CCOP(C)(=O)O1` (stereo unspecified) as the compound, how does the inhibition read?
A: Its inhibition is inactive: 3.47%.
